Source: ChEMBL document CHEMBL2311356, “The effect of 17-N substituents on the activity of the opioid κ receptor in nalfurafine derivatives” (Bioorg Med Chem Lett, 2013)

Sequences of proteins named here, by UniProt entry; tags and fusion partners are left off. A change or cut given only in a name is not applied to a line headed by its entry.
UniProt P41144: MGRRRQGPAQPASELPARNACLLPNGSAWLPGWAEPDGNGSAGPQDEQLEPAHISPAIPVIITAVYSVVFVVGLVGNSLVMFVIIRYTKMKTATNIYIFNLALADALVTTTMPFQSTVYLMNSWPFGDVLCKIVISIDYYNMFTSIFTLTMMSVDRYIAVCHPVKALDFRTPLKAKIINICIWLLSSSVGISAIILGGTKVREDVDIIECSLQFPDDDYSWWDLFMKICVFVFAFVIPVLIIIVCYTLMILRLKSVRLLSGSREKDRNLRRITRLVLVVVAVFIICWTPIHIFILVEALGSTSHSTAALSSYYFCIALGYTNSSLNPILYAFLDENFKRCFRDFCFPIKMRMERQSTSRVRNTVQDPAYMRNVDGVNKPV
UniProt P32300, whole entry, looked up: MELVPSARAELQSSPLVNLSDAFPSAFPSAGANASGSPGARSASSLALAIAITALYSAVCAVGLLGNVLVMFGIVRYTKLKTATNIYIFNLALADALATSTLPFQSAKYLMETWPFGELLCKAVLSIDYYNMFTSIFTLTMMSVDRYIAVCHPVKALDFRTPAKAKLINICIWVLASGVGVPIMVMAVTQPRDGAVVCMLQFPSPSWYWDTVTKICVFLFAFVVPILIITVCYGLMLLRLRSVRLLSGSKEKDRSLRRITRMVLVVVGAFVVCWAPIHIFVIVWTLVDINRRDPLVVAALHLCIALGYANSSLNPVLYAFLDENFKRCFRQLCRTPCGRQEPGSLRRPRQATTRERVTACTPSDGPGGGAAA
UniProt P42866, whole entry, looked up: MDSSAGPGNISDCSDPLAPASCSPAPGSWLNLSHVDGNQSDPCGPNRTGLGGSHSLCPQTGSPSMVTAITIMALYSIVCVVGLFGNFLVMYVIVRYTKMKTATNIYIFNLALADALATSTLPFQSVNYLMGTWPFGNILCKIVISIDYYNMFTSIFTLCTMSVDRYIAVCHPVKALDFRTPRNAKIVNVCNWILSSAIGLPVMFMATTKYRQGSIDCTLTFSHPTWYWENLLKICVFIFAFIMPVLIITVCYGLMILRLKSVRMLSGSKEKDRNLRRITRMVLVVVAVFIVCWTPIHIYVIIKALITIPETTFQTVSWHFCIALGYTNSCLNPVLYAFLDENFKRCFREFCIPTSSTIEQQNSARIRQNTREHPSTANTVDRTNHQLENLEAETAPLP

How the values were obtained:
[1] = biological target: Kappa-type opioid receptor (Cavia porcellus, UniProt P41144); experiment: Displacement of [3H]U69593 from kappa opioid receptor in guinea pig cerebellum after 1 hr by liquid scintillation counting analysis
[2] = biological target: Delta-type opioid receptor (Mus musculus, UniProt P32300); experiment: Displacement of [3H]DPDPE from delta opioid receptor in mouse whole brain membranes without cerebellum after 1 hr by liquid scintillation counting analysis
Mu-type opioid receptor = Mu-type opioid receptor (Mus musculus, UniProt P42866); experiment: Displacement of [3H]DAMGO from mu opioid receptor in mouse whole brain membranes without cerebellum after 1 hr by liquid scintillation counting analysis

CN(C(=O)Cc1ccccc1)[C@H]1CC[C@@]2(CCCO2)C[C@@H]1N1CCCC1
Ki [1]: 1.37 nM
Ki [2]: 391 nM
Ki (Mu-type opioid receptor): 548 nM
